For this test, the target named is cathepsin D (Homo sapiens, UniProt P07339). In words: cathepsin D inhibition assay with fluorogenic substrate (tight-binding kinetics). The class given is biochemical. Particulars: target named only in b168/b175 (cathepsin D), elsewhere implied.

By UniProt entry, the sequences of proteins in these tests, tags left out. Residues count along the entry.
UniProt P07339, 65-412 limits assumed: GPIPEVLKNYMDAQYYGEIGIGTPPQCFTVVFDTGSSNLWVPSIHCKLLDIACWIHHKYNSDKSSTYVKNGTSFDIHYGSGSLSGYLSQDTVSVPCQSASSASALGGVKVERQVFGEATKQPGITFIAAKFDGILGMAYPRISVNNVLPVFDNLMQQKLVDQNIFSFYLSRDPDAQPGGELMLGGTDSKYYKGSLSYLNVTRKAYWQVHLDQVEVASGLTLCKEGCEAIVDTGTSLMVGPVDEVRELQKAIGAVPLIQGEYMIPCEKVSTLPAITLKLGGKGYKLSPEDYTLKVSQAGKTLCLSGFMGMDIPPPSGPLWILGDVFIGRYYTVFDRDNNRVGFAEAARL

SMILES strings stand for the structures.

As for `O=C1C[C@H](O)[C@H](Cc2ccccc2)NC(=O)CCCCCCCCCCCNC(=O)[C@H](C2CCCCC2)N1`, the Ki is 85 nM. This counts as double-digit nanomolar. Then `CC(C)[C@@H]1NC(=O)C[C@H](O)[C@H](CC2CCCCC2)NC(=O)CCCCCCCCCCCNC1=O`, with 10 nM; and `CC(C)[C@@H]1NC(=O)C[C@H](O)[C@H](Cc2ccccc2)NC(=O)OCCCCCCCCCCCNC1=O`, with 3.6 nM.

`CC(C)[C@@H]1NC(=O)C[C@H](O)[C@H](Cc2ccccc2)NC(=O)NCCCCCCCCCCCNC1=O`: the inhibitory constant (Ki) was determined as 45 nM. Compared with the last molecule, the Ki is about 12-fold higher. Then `CCC(C)[C@@H]1NC(=O)C[C@H](O)[C@H](Cc2ccccc2)NC(=O)CCCCCCCCCCCNC1=O` (stereo partly drawn), with 22 nM. `C[C@@H]1NC(=O)C[C@H](O)[C@H](Cc2ccccc2)NC(=O)CCCCCCCCCCNC1=O` came in with an inhibitory constant (Ki) of 140 nM. Compared with the last molecule, the Ki is about 6.4-fold higher. Next, `O=C1C[C@H](O)[C@H](Cc2ccccc2)NC(=O)CCCCCCCCCCCNC(=O)[C@H](Cc2ccccc2)N1`: 21 nM; `CC(C)[C@@H]1NC(=O)C[C@H](O)[C@H](Cc2ccccc2)NC(=O)CCCCCCCCCCNC1=O`: 20 nM. Next, `CC(C)[C@@H]1NC(=O)C[C@H](O)[C@H](Cc2ccccc2)NC(=O)CCCCCCCCCCCNC1=O`: 4 nM.

The Ki is the dissociation constant of the complex between target and ligand, obtained from inhibition or displacement.

These data come from patent publication US5849691A, “Peptidomimetic inhibitors of cathepsin D and plasmepsins I and II” (The United States of America as represented by the …, priority 1996, dated 1998).
